Tests used:
Format in all cases: physicochemical
[1] = Storage stability at different relative humidities, ambient temperature, 7 days (XRPD); conditions: for at least 7 days
Description: (§1) X-ray diffraction was performed on X-Ray powder diffractometer: • Bruker D8 Advance; CuKα radiation (λ=1.5418 Å); Lynx eye detector; laboratory temperature 22-25° C.; PMMA specimen holder ring with silicon low background. Prior to analysis, the samples were gently ground by means of mortar and pestle in order to obtain a fine powder. The ground sample was adjusted into a cavity of the sample holder and the surface of the sample was smoothed by means of a cover glass. Measurement Parameters: • Scan range: 2-40 degrees 2-theta; • Scan mode: continuous; • Step size: 0.05 degrees; • Time per step: 0.5 s; • Sample spin: 30 rpm; • Sample holder: PMMA specimen holder ring with silicon low background.
Samples of Ensifentrine ethane-1,2-disulfonate form ES2 were subjected to conditions of different relative humidities at ambient temperature. XRPD analysis was performed on the samples after 7 days.

[2] = Storage stability at different relative humidities and temperatures, 6 months (XRPD); conditions: for at least 6 months
Description: as §1
Samples of Ensifentrine ethane-1,2-disulfonate form ES2 were subjected to conditions of different relative humidities at different temperatures. XRPD analysis was performed on the samples after 6 months.

[3] = Thermal stability (heating, XRPD); conditions: Heating 100° C., 30 minutes
Description: as §1
A sample of Ensifentrine ethane-1,2-disulfonate form ES2 was subjected to heating up to 100° C. for 30 minutes. XRPD analysis of the sample confirmed no change in the starting material (Table 4): […]

Stability after exposure to high and low relative humidity [1]: stable
Stability after exposure to high and low relative humidity at different temperatures [2]: stable
Result (thermal stability) [3]: Stable
Substance: Ensifentrine ethane-1,2-disulfonate

Reference: patent publication US12692265B2, “Solid state forms of Ensifentrine and process for preparation thereof” (ASSIA CHEMICAL INDUSTRIES LTD., priority 2021, dated 2026)
